Source: PMC9200282, “GPR15L is an epithelial inflammation-derived pruritogen” (Science Advances, 2022)

The chains behind the UniProt entries cited, without tags or fusion partners. Where a name states a change or a piece, a line headed by the entry shows the natural chain unless it says otherwise.
UniProt Q96LB2: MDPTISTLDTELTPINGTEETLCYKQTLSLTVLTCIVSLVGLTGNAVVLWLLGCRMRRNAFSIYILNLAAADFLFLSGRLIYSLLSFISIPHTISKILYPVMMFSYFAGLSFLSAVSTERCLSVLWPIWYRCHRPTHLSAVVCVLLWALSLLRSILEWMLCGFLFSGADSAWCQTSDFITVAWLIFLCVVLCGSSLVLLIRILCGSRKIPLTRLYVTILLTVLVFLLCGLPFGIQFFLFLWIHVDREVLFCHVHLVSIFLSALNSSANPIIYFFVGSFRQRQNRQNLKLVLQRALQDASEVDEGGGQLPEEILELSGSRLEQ

Key:
GPR15 = settings: cited from earlier work
Source text: (§1) Inflammation is an important skin reaction evoked to various challenges. Among these responses, the release of various damage-associated molecular pattern (DAMP) agents causes stimulation in the innate immune system ([12]). Another dermal reaction during inflammation is the release of antimicrobial substances. In the skin, these include the release of peptides such as β-defensins, cathelicidin (LL-37), and eosinophil major basic protein (PRG2). Another peptide, C10orf99 (chromosome 10 open reading frame 99), which encodes a 57–amino acid cationic peptide, was implicated as an antimicrobial ([1 ...

[1] = system: sushi domain containing 2 (SUSD2); settings: cited from earlier work
Source text: as §1

[2] = system: Gram-positive bacteria, fungi, and virus; settings: cited from earlier work
Source text: The human genome encodes eight MRGPR genes, while the mouse genome encodes more than 30 Mrgpr genes ([45]–[47]). The functional homology between human and mouse MRGPR proteins is not well defined. Nevertheless, it is acknowledged that there are strong similarities between MRGPRX2 and Mrgprb2 expressed in mast cells ([46]) and between MRGPRX1 and Mrgpra3 ...

Mcpt5-DTA mice = experiment: Scratching behavior, mast cell-lacking (Mcpt5-DTA) mice; format: in vivo, mouse; settings: mast cell-deficient mice
Source text: (§2) Experiments using mice followed NIH guidelines and were approved by the National Institute of Dental and Craniofacial Research Animal Care and Use Committee. Eight- to twelve-week-old male and female mice were used: C57BL/6N (Envigo), Gpr15l (2610528A11Rik) KO (#TF3294, Taconic Bioscience Inc.), Sash mutant (c-Kit ^w-sh) mice (#030764, The Jackson Laboratory), Rag2 KO (recombination activating gene 2 deletion) mice (#033526, The Jackson Laboratory), ROSA-stop-DTA (#009669, The Jackson Laboratory) ([59]), Mrgpra3-Cre-eGFP from X. Dong ([36]), and Mcpt5-Cre ([33]).
Behavioral assessment of scratching was conducted as previously described ([60]). Recombinant GPR15L/Gpr15l peptides (Genscript USA Inc. or Biomatek USA LLC) or other pruritogens were intradermally injected (10 μl in saline) into the mouse nape area. Bouts were defined as scratching events directed toward the site of injection from lifting the hind leg from the ground to returning it. Itch responses were quantified by the bouts evoked within 30 min after chemical injection. In some behavioral tests, scratching bouts were automatically counted with the MicroAct system (Neuroscience, Inc.), and the monitor time was extended to 60 min as previously described ([61]). […] Vertical movements of the implanted magnets will induce currents, which were recorded. Scratching bouts were determined using MicroAct software ([63], [64]).

LAD2 human mast cells = experiment: Calcium imaging of LAD2 human mast cells; format: cell-based; settings: 1 μM
Experimental: LAD2 cells were maintained in StemPro-34 (Gibco) supplemented with recombinant human stem cell factor (100 ng/ml) and penicillin/streptomycin, as described previously ([32]). LAD2 cells were loaded with Fluo-8 AM for 30 min at 37°C, washed twice in Hanks’ balanced salt solution (HBSS), and incubated for 30 min at room temperature.

mice [3] = experiment: Evans blue extravasation, wild-type mice; format: in vivo, mouse; settings: intraplanar
Source text: as §2
Evans blue was used to assay extravasation as previously described ([44]). Briefly, Evans blue powder (Sigma-Aldrich) was dissolved in saline to 1% working solution. Approximately 200 to 250 μl (100 mg/kg) of the solution was injected through mouse tail veins. Hind paws were injected subcutaneously with 10 μl of GPR15L/Gpr15l peptide (GenScript USA Inc. and Biomatek USA LLC), and an equal volume of saline was injected into the contralateral paw. Tissues were dissected, air-dried overnight, weighed, and then immersed into 400 μl of formamide overnight. Optical density (OD) values (mg/ml) were measured with a spectrophotometer at 610-nm wavelength. Plasma extravasation values were calculated by normalized OD values with tissue weights.

MRGPRX1 = molecular target: T1, MRGPRX1 (Homo sapiens, UniProt Q96LB2); experiment: FLIPR calcium screening, MRGPRX1; format: cell-based; settings: MRGPRX1 vs MRGPRX2
T1 construct: host or cells: HEK293
Experimental: HEK293 cells were cultured in DMEM/F12 supplemented with 10% FBS, penicillin (100 U/ml), and streptomycin (100 μg/ml). For transient expression, 8 × 10^5 cells were seeded, cultured for 24 hours, and transfected using TransIT-293 (Mirus Bio). Cells were transfected with GCaMP6s, Gα15 subunit, together with an individual MRG receptor. Expression vectors for MRGPRX1, MRGPRX2, MRGPRX3, MRGPRX4, MRGPRD, MRGPRE, MRGPRF, and MRGPRG were obtained from Addgene. Mouse Mrgpr expression vectors for Mrgpra1, Mrgpra2b, Mrgpra3, Mrgprb2, Mrgprb4, Mrgprc11, and Mrgprd were obtained from X. Dong at Johns Hopkins University ([68]) as well as for Mrgpre (GenScript Inc.). After 48 hours, cells were plated at 20,000 cells per well in 96-well plates with HBSS (with calcium and magnesium) and measurements were made. The EC50 values were determined with a three-parameter dose-response curve in GraphPad Prism.

mice [4] = experiment: Scratching behavior after intradermal injection, wild-type mice; format: in vivo, mouse; settings: for scratching response: 10 μl in saline, nape
Source text: as §2
Behavioral assessment of scratching was conducted as previously described ([60]). Recombinant GPR15L/Gpr15l peptides (Genscript USA Inc. or Biomatek USA LLC) or other pruritogens were intradermally injected (10 μl in saline) into the mouse nape area. Bouts were defined as scratching events directed toward the site of injection from lifting the hind leg from the ground to returning it. Itch responses were quantified by the bouts evoked within 30 min after chemical injection. In some behavioral tests, scratching bouts were automatically counted with the MicroAct system (Neuroscience, Inc.), and the monitor time was extended to 60 min as previously described ([61]). Briefly, a magnet (1 mm in diameter and 3 mm in length) was implanted under the skin of the dorsal hind paw at least 7 days before the behavioral tests ([62]). About 10 min before the tests, mice were placed into a special observation chamber with a ring coil. Vertical movements of the implanted magnets will induce currents, which were recorded. Scratching bouts were determined using MicroAct software ([63], [64]).

**Q.** Which results are given for `CC(C)C[C@H](NC(=O)[C@H](CCCNC(=N)N)NC(=O)[C@@H](NC(=O)[C@H](Cc1c[nH]cn1)NC(=O)[C@H](Cc1c[nH]cn1)NC(=O)CNC(=O)[C@H](CCCCN)NC(=O)[C@H](CC(C)C)NC(=O)[C@H](CC(N)=O)NC(=O)[C@@H](NC(=O)[C@H](CO)NC(=O)[C@H](CC(N)=O)NC(=O)[C@@H]1CCCN1C(=O)[C@H](CO)NC(=O)[C@@H]1CCCN1C(=O)[C@@H](NC(=O)[C@H](CCCNC(=N)N)NC(=O)[C@H](Cc1c[nH]cn1)NC(=O)[C@H](CS)NC(=O)[C@H](CS)NC(=O)[C@H](CC(C)C)NC(=O)[C@H](CCCNC(=N)N)NC(=O)[C@@H](NC(=O)[C@H](CCCNC(=N)N)NC(=O)[C@H](CCCNC(=N)N)NC(=O)CNC(=O)[C@H](CO)NC(=O)[C@H](Cc1c[nH]c2ccccc12)NC(=O)[C@H](C)NC(=O)[C@H](CCCCN)NC(=O)[C@H](C)NC(=O)[C@@H]1CCCN1C(=O)[C@H](CCCNC(=N)N)NC(=O)[C@H](CCCNC(=N)N)NC(=O)[C@@H](N)CCCCN)[C@@H](C)O)C(C)C)[C@@H](C)O)C(C)C)C(=O)N[C@@H](CS)C(=O)N[C@@H](CCCCN)C(=O)N1CCC[C@H]1C(=O)N[C@@H](CS)C(=O)N[C@@H](CCCCN)C(=O)N[C@@H](CC(C)C)C(=O)N[C@@H](CCC(=O)O)C(=O)N1CCC[C@H]1C(=O)N[C@@H](CCC(=O)O)C(=O)N1CCC[C@H]1C(=O)N[C@@H](CCCNC(=N)N)C(=O)N[C@@H](CC(C)C)C(=O)N[C@@H](Cc1c[nH]c2ccccc12)C(=O)N[C@H](C(=O)N[C@H](C(=O)N1CCC[C@H]1C(=O)NCC(=O)N[C@@H](C)C(=O)N[C@@H](CC(C)C)C(=O)N1CCC[C@H]1C(=O)N[C@@H](CCC(N)=O)C(=O)N[C@H](C(=O)O)C(C)C)C(C)C)C(C)C` [GPR15L]?
**A.** GPR15 ligand (GPR15): cognate ligand; SUSD2 ligand [1]: ligand for sushi domain containing 2 (SUSD2); antimicrobial activity [2]: broad-spectrum antimicrobial peptide; itch phenotype after mast cell depletion (Mcpt5-DTA mice): not reduced by mast cell depletion; increase in intracellular calcium (LAD2 human mast cells): triggered increases in intracellular calcium; vascular permeability / extravasation (mice [3]): increased vascular permeability resulting in extravasation; EC50 for MRGPRX1 relative to MRGPRX2 (printed "lower") (MRGPRX1): about 10 fold; scratching response (mice [4]): dose-dependently evoked robust scratching responses in mice; scratching response (mice [4]; listed as human GPR15L): evoked intense itch phenotype; pruritic potency (molar concentrations) (mice [4]; Fig. 2B): higher than that for both histamine and chloroquine; duration of scratching response vs chloroquine (mice [4]; n = 6 in 1 mM, n = 4 in 3 mM, chloroquine n = 5): long-lasting pruritogenic effects when compared to chloroquine; also recorded: long-lasting scratching responses when compared to chloroquine

Entries after “also recorded” stand apart in the source; their conditions may differ.
